# Yeast mating assay 2: variants of the scFv Ab-91

Antigen: PDVDLGDISGINAS, a 14-residue peptide of the SARS-CoV-2 spike HR2 region.

The variants keep the light chain, the linker and the frameworks of Ab-91 (scFv order VL, a 15-residue (Gly4Ser)3 linker, VH).
VL: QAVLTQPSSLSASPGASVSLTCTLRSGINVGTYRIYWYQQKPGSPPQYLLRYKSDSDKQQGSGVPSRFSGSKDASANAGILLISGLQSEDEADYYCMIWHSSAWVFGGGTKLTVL
VH: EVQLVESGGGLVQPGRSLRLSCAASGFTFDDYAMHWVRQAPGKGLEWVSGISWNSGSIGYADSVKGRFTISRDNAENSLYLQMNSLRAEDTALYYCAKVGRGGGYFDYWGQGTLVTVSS

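The starting antibody came from a phage panning campaign against this peptide. In library AAYL51, one, two or three CDR residues were substituted; doubles and triples were drawn at random. In AlphaSeq, yeast of one mating type display the scFv and yeast of the other type display the target. Binding brings cells together so that they mate, and sequencing counts the barcode pairs among the diploids. A regression on co-assayed BCL2-family reference pairs converts the normalised counts of each replicate to an apparent Kd. Each pool was mated in three replicate cultures.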

Changes read parent residue, position, new residue, counted from the first residue of the VH shown.
This list gathers variants with a substitution at W53 (VH, numbered from residue 1).
The Kd shown is the geometric mean over detected replicates; a lower Kd is a better binder.
A pair that was not seen in any replicate is written "nd"; this usually means weak binding, but a binder can also be missed.
As a blank, each scFv also met three strains without target: over library AAYL51, 21% of these pairings were detected, typically at 34 µM and seldom below 1.8 µM.
For reference, the parent read 72 nM as the reference entry and 7.5 nM as a member of this library.

changes	Kd	replicates with signal
M34P/W53L	7.1 µM	1/3
W53I/V99K/R101C	110 nM	3/3
W53S/G102F/Y105A	7.0 µM	2/3
W53P/F106M/D107N	nd	0/3
A33E/M34Q/W53M	nd	0/3
I51V/W53C/G104L	500 µM	3/3
F27E/W53A	370 nM	3/3
G26C/W53Y/I58Y	nd	0/3
G50E/S52Y/W53E	nd	0/3
H35S/I51P/W53T	nd	0/3
W53P/V64H	8.8 nM	3/3
F29G/W53K/G103C	14 µM	2/3
W53K/A61I/G103H	26 µM	3/3
W53K/G100P/Y108E	58 µM	2/3
D31M/M34A/W53I	nd	0/3
G50H/W53F/R101A	nd	0/3
T28R/W53N/R101D	8.7 µM	1/3
G50D/W53E	110 µM	2/3
Y32V/S52A/W53L	5.0 µM	3/3
W53N	25 µM	3/3
W53C/D107I	280 nM	2/3
W53R	380 nM	3/3
G26P/W53N/K65W	220 µM	1/3
D30R/W53C/K65D	600 nM	3/3
T28V/W53K/G100P	41 µM	1/3
W53V/R101G/G102F	54 nM	3/3
H35A/W53D/V99S	17 µM	2/3
T28E/W53L/G100A	32 µM	1/3
A33R/W53C/Y108L	80 µM	2/3
W53Y/Y60N/Y105L	nd	0/3
G26F/I51T/W53M	nd	0/3
T28Q/W53G/S63C	27 nM	3/3
F29G/W53R/S63C	11 µM	2/3
W53L/G56C/F106S	29 nM	3/3
M34W/W53A/R101D	nd	0/3
Y32N/A33F/W53V	nd	0/3
S52N/W53K/D62F	670 µM	3/3
G26H/G50Q/W53Q	59 µM	3/3
W53R/A61M	1.6 µM	3/3
W53S/S55E	1.0 µM	3/3
W53E/Y60M/V64L	nd	0/3
W53A/Y60H	14 µM	2/3
G50T/W53Y/N54P	96 µM	3/3
W53Y/Y108A	10 µM	1/3
W53D/S57E/S63Y	nd	0/3
D30A/W53P/G104N	2.8 µM	2/3
W53Y/G59C	28 µM	2/3
D31W/W53T/R101L	nd	0/3
D31Y/W53V/Y108P	84 nM	3/3
W53G/S55W/G100F	55 µM	2/3
W53D/I58R/V99L	nd	0/3
A33P/W53I/Y105D	330 µM	2/3
W53S/F106H	390 nM	3/3
D30C/W53L/Y105F	79 µM	1/3
S52H/W53C	7.0 µM	1/3
W53M/G100I	14 nM	3/3
W53S/D62T/S63T	500 nM	3/3
G26R/W53K/G104H	120 µM	2/3
T28P/W53S/Y108D	1.8 µM	1/3
S52L/W53L/K65P	nd	0/3

Repeated from above, the 9 best binders with a signal in all replicates:

| changes | Kd | replicates with signal |
|---|---|---|
| W53P/V64H | 8.8 nM | 3/3 |
| W53M/G100I | 14 nM | 3/3 |
| T28Q/W53G/S63C | 27 nM | 3/3 |
| W53L/G56C/F106S | 29 nM | 3/3 |
| W53V/R101G/G102F | 54 nM | 3/3 |
| D31Y/W53V/Y108P | 84 nM | 3/3 |
| W53I/V99K/R101C | 110 nM | 3/3 |
| F27E/W53A | 370 nM | 3/3 |
| W53R | 380 nM | 3/3 |

Source: Engelhart et al. 2022 (doi:10.1038/s41597-022-01779-4), MIT Lincoln Laboratory and A-Alpha Bio; data file from the FLAb repository.